In ChEMBL document CHEMBL2311317, “Organosilicon molecules with medicinal applications” (J Med Chem, 2013):

Species on record: Homo sapiens
Assay: Selectivity ratio of COX1 (unknown origin) to COX2 (unknown origin)

| SMILES | Selectivity ratio |
| --- | --- |
| COc1ccc2c(c1)c(CC(=O)NC[Si](C)(C)c1ccccc1)c(C)n2C(=O)c1ccc(Cl)cc1 | 1000 |
| COc1ccc2c(c1)c(CC(=O)NC[Si](C)(C)C)c(C)n2C(=O)c1ccc(Cl)cc1 | 1000 |
| COc1ccc2c(c1)c(CC(=O)NCCC[Si](C)(C)C)c(C)n2C(=O)c1ccc(Cl)cc1 | 1000 |
